The assay addresses Glycogen synthase kinase-3 beta (Homo sapiens, UniProt P49841). Description: Inhibition of human recombinant GSK3beta after 30 mins by luminescence assay in presence of ATP. The method in brief:
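Human recombinant GSK-3β (20 ng) with prephosphorylated polypeptide substrate 25 μM and ATP 1 μM in 50 mM HEPES pH 7.5, 1 mM EDTA, 1 mM EGTA, 15 mM Mg acetate. Final DMSO ≤1%. Incubated 30 min at 30 °C, stopped with Kinase-Glo reagent, and luminescence read after 10 min. Inhibition is relative to the no-inhibitor maximum. IC50 is the concentration giving 50% activity loss.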

Sequences of proteins named here, by UniProt entry; tags and fusion partners are left off. A change or cut given only in a name is not applied to a line headed by its entry.
UniProt P49841: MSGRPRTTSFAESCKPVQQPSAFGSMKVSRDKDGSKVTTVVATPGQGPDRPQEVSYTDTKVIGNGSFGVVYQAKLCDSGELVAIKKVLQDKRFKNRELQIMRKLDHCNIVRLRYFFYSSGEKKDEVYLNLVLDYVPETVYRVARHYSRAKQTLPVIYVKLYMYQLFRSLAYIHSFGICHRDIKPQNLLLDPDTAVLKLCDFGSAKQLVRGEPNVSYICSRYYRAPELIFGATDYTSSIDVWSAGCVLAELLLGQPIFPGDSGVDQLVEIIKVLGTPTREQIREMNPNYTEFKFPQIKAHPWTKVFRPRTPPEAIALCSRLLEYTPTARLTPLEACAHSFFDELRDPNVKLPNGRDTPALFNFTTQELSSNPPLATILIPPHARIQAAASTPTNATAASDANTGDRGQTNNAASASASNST

We go through two compounds from ChEMBL document CHEMBL2021862, “5-imino-1,2,4-thiadiazoles: first small molecules as substrate competitive inhibitors of glycogen synthase kinase 3” (J Med Chem, 2012).

Turning to `c1ccc(/N=c2\nc(-c3ccccc3)n(-c3ccccc3)s2)cc1`, the half-inhibitory concentration (IC50) was determined as 2800 nM.
To `Br.c1ccc(/N=c2/nc(-c3ccccc3)n(-c3ccccc3)s2)cc1` belongs 900 nM.
